This note sets out measurements from patent US6472373B1, “Combination therapy for eradicating detectable HCV-RNA in antiviral treatment naive patients having chronic hepatitis C infection” (priority 1997, dated 2002).

For this test, the system named is chronic hepatitis C (hepatic inflammation). Nature of the test: Study 1: liver histology, Knodell HAI (I+II+III) score. The test is classed as in vivo. The following applies: patients with paired biopsies. The source says: This was a prospective, multicenter, randomized, double-blind, parallel-group. The study compared treatment with INTRON® A plus ribavirin to treatment with INTRON® A plus placebo for 24 or 48 weeks in antiviral treatment naive patients with compensated chronic hepatitis C who had no prior treatment with any interferon including but not limited to alpha interferon (INTRON® A, Roferon®-A, consensus interferon, or Wellferon®) therapy and who also had no prior treatment with ribavirin. […] Eligible patients had chronic hepatitis C confirmed by positive serum HCV-RNA, liver biopsy, and laboratory tests. Patients were randomized to treatment with either INTRON® A plus ribavirin or INTRON® A plus placebo. […] Treatment group assignments were made in equal ratios by a Central Randomization Center. The randomization procedure was designed to attempt to balance the treatment groups, within and across sites, with respect to presence or absence of cirrhosis in the pretreatment liver biopsy, serum HCV-RNA/qPCR level, and HCV genotype. […] Evaluation of the biopsies was performed by a single pathologist using the Knodell Histology Activity Score. The central pathologist was blinded with respect to patient identification, treatment group, and the time the biopsy was obtained relative to treatment(Pre- or Posttreatment).

For the substance “INTRON A + Placebo: INTRON A (interferon alpha-2b, recombinant) 3 million IU SC TIW plus placebo matching ribavirin; interferon monotherapy comparator”, the “Improved Biopsy: Knodell HAI (I+II+III) decrease of 2 or more, 24 weeks following EOT” value is recorded as 77 (44%) (24 weeks treatment) and 65 (41%) (48 weeks treatment).
